The values below come from PubChem BioAssay AID504326 (The Scripps Research Institute Molecular Screening Center, 2011).

By UniProt entry, the sequences of proteins in these tests, tags left out.
UniProt P35372, whole entry, looked up: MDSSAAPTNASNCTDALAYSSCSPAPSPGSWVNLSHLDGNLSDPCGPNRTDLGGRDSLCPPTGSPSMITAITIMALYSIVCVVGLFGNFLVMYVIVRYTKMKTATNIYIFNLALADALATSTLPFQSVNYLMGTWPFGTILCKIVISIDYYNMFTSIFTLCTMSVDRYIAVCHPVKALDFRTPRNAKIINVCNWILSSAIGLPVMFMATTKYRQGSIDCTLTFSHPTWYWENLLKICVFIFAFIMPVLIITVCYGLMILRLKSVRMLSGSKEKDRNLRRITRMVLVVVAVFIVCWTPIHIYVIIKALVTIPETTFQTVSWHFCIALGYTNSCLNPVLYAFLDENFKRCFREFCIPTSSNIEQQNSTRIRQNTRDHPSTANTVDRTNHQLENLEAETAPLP
UniProt P41143, whole entry, looked up: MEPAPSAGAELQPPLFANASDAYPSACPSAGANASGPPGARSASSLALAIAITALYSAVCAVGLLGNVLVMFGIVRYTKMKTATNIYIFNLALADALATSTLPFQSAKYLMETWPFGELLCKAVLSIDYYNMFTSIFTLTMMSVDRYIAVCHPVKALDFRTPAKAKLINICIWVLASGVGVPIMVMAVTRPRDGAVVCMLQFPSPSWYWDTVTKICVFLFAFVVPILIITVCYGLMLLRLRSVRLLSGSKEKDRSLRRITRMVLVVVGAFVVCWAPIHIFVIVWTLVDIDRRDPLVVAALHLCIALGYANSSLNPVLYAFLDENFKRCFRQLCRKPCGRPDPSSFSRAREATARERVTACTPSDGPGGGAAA

The entries are a selection whose mix differs from that of the whole data set. Some salts or complexes appear as unconnected parts, following the source record. Calls of active or inactive are those of the source. Rule as the data show it: active = activation above about 18%; inactive = the rest.

In this assay the target is Mu-type opioid receptor (Homo sapiens) + Delta-type opioid receptor (Homo sapiens) (UniProt P35372+P41143). In words: inducers of mu-delta opioid receptor heterodimers – cell-based, luminescence, primary screen (AID 504326).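 Also: 0% = vehicle-treated cells and 100% = reference agonist.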 The note with it: cells, OPRM1-OPRD1 heterodimerization, at 9.3 µM, stronger effect = higher value.
On to `CCOC(=O)C(CC)C1=NC(C)(C)Cc2ccccc21.O=[N+]([O-])c1cc([N+](=O)[O-])c(O)c([N+](=O)[O-])c1` (centres undefined), for which the activation is inactive: -1.11%.

Regarding `CN(C)C1(CNC(=O)c2ccc(S(C)(=O)=O)cc2)CCCCC1`, the activation is inactive: 3.38%.

Turning to `CC1=C2N=C(C=C3N=C(C(C)=C4[N-][C@@](C)([C@@H]5N=C1[C@](C)(CCC(=O)NC[C@@H](C)OP(=O)([O-])O[C@H]1[C@@H](O)[C@@H](n6cnc7cc(C)c(C)cc76)O[C@@H]1CO)[C@H]5CC(N)=O)[C@@](C)(CC(N)=O)[C@@H]4CCC(N)=O)[C@@](C)(CC(N)=O)[C@@H]3CCC(N)=O)C(C)(C)[C@@H]2CCC(N)=O.[C-]#N.[Co+3]`, the activation is inactive: -2.5%.

For `O=[N+]([O-])c1cc([N+](=O)[O-])c(Nc2nnnn2CCO)c([N+](=O)[O-])c1`, the activation was inactive: -3.6%.

As to `CCCOc1ccc(NP(C)(=O)Oc2ccc(Cl)cc2)cc1` (centres undefined), the activation was inactive: 2.55%.

On to `CP(=O)(Nc1ccc(SC(F)(F)F)cc1)Oc1ccccc1` (centres undefined), for which the activation was inactive: 2.48%.

For `COc1ccccc1OP(C)(=O)Nc1c(C)cccc1C` (centres undefined), the activation was inactive: -2.44%.

As to `CN1CCCCC1COC(=O)C1(O)c2ccccc2CCc2ccccc21` (centres undefined), the activation was inactive: 0.78%.

Consider `O=[N+]([O-])c1cc([N+](=O)[O-])c(-n2nnc3ccccc32)c([N+](=O)[O-])c1`, for which the activation was inactive: -2.74%.

Consider `Cc1nc2ccc3ccccc3c2s1.O=[N+]([O-])c1cc([N+](=O)[O-])c(O)c([N+](=O)[O-])c1`, for which the activation is inactive: -3.5%.

On to `O=[N+]([O-])c1cc([N+](=O)[O-])c(-c2cnn(-c3ccccc3)c2)c([N+](=O)[O-])c1`, for which the activation is inactive: 16.7%.

`CCOC(=O)c1ccc(NP(C)(=O)Oc2cc(C)cc(C)c2)cc1` (centres undefined): the activation is inactive: 0.5%.

As for `Cc1cc(C)cc(OP(C)(=O)Nc2ccc(C)cc2C)c1` (centres undefined), the activation is inactive: 3.03%.

With `COc1ccccc1OP(C)(=O)Nc1cccc(Br)c1` (centres undefined), the activation was inactive: 0.94%.

Turning to `COc1cc(C(=O)NCC2(N3CCOCC3)CCCCC2)cc(Cl)c1OC(C)C`, the activation was inactive: 3.38%.

Regarding `Cc1ccc(C)c(NP(C)(=O)Oc2ccccc2)c1` (centres undefined), the activation is inactive: 0.65%.

Turning to `Cc1cc(C)cc(OP(C)(=O)Nc2ccccn2)c1` (centres undefined), the activation was inactive: -2.3%.

Take `CP(=O)(Nc1cccc(Br)c1)Oc1ccccc1` (centres undefined): the activation was inactive: -2.39%.

As for `O=C(O)c1cccc(Nc2c([N+](=O)[O-])cc([N+](=O)[O-])cc2[N+](=O)[O-])c1`, the activation was inactive: -2.63%.

For the compound `CC1=NCCc2c1[nH]c1ccccc21.O=[N+]([O-])c1cc([N+](=O)[O-])c(O)c([N+](=O)[O-])c1`, the activation is inactive: -0.44%.

With `CN(C(=O)Cc1ccc(Cl)c(Cl)c1)[C@H]1CC[C@@]2(CCCO2)C[C@@H]1N1CCCC1`, the activation was active: 46.1%.

On to `O=[N+]([O-])c1ccc2c(c1)C=Nc1ccccc1O2`, for which the activation is inactive: 2.07%.

Take `Cc1cccc(C)c1OP(C)(N)=O` (centres undefined): the activation is inactive: -0.85%.

In the case of `CC(C)(C)c1ccc(OP(C)(=O)Nc2ccc(SC(F)(F)F)cc2)cc1` (centres undefined), the activation is inactive: 3.62%.

Regarding `COc1cc(C(=O)NCC2(N3CCOCC3)CCCCC2)ccc1OCC(C)C`, the activation was inactive: 0.38%.

As for `O=[N+]([O-])c1cc([N+](=O)[O-])c(Nc2cccnc2)c([N+](=O)[O-])c1`, the activation was inactive: -0.77%.

For `Cc1cc(C)cc(OP(C)(N)=O)c1` (centres undefined), the activation was inactive: -3.12%.

Take `COc1ccc(OP(C)(=O)Nc2cccc(F)c2)cc1` (centres undefined): the activation was inactive: -0.54%.

Regarding `COc1ccccc1OP(C)(=O)Nc1cc(Cl)ccc1C` (centres undefined), the activation is inactive: -1.4%.

`Cc1ccc(NP(C)(=O)Oc2ccccc2)c(C)c1` (centres undefined): the activation was inactive: -0.92%.

Regarding `COc1ccccc1OP(C)(=O)Nc1ccc(C)cc1` (centres undefined), the activation was inactive: -0.84%.

In the case of `CCOC(=O)c1ccc(NP(C)(=O)Oc2ccccc2)cc1` (centres undefined), the activation is inactive: 0.75%.

As to `CCN(CC)CCn1c(NCc2ccc(OC)cc2)nc2ccccc21`, the activation was inactive: -1.33%.

As for `CCN(CC)CCCOC(=O)C(O)(c1ccccc1)c1ccccc1`, the activation is inactive: -2.02%.

As for `Cc1ccc(S(=O)(=O)NCCC(=O)N2CCN(C/C=C/c3ccccc3)CC2)cc1`, the activation is inactive: -1%.

`Cc1cc(C)cc(OP(C)(=O)Nc2ccc(SC(F)(F)F)cc2)c1` (centres undefined): the activation is inactive: 9.65%.

Regarding `CP(=O)(NC(=O)Nc1ccccc1)Oc1ccccc1` (centres undefined), the activation was inactive: 1.09%.

As for `CCc1ccc(OP(C)(=O)N2CCN(c3ccc([N+](=O)[O-])cc3)CC2)cc1` (centres undefined), the activation was inactive: -1.76%.

For `CP(=O)(Oc1ccccc1)OC(c1ccccc1)C(F)(F)F` (centres undefined), the activation is inactive: -1.42%.

Consider `Cc1cccc(C)c1OP(C)(=O)Nc1ccc(SC(F)(F)F)cc1` (centres undefined), for which the activation is inactive: -0.06%.

With `CP(=O)(Nc1ccccn1)Oc1ccc(Cl)cc1` (centres undefined), the activation was inactive: -1.85%.

Regarding `CCOC(=O)c1ccc(NP(C)(=O)Oc2ccc(OC)cc2)cc1` (centres undefined), the activation was inactive: 2.43%.

Consider `CCOP(C)(=S)SCC(=O)NC(C)C(=O)O` (centres undefined), for which the activation is inactive: 0.21%.

`CCCCOc1ccc(C(=O)NCC2(N3CCCCC3)CCCCC2)cc1OC`: the activation was inactive: -0.26%.

With `CP(=O)(Nc1ccccc1Br)Oc1ccccc1` (centres undefined), the activation was inactive: -3.06%.

As to `COc1ccccc1OP(C)(=O)Nc1ccccc1` (centres undefined), the activation is inactive: -1.97%.

Take `C=CCC1(Nc2ccccc2)CC(C)N(C)CC1C` (centres undefined): the activation was inactive: -1.86%.

With `CP(=S)(Nn1cnnc1)Oc1ccccc1` (centres undefined), the activation was inactive: -2.28%.

For `CCOC(=O)c1ccc(NP(C)(=O)Oc2ccc(Cl)cc2)cc1` (centres undefined), the activation is inactive: -0.81%.

In the case of `CP(=O)(OC12CC3CC(CC(C3)C1)C2)OC12CC3CC(CC(C3)C1)C2`, the activation is inactive: 7.21%.

Regarding `O=C(OCCCN1CCCC1)C(O)(c1ccccc1)C1CCCCC1` (centres undefined), the activation was inactive: -3.39%.

As for `COc1ccccc1OP(C)(=O)Nc1c(C)n(C)n(-c2ccccc2)c1=O` (centres undefined), the activation was inactive: -2.7%.

With `CCc1ccc(OP(C)(=O)Nc2cccnc2)cc1` (centres undefined), the activation is inactive: 0.15%.

Turning to `CP(=O)(Oc1ccccc1)N1CCOC1=O` (centres undefined), the activation was inactive: -2.33%.

`COc1ccc(OP(C)(=O)Nc2ccc(Br)cc2)cc1` (centres undefined): the activation was inactive: -0.2%.

Consider `CCN(CC)CC(O)COC(=O)C(O)(c1ccccc1)C1CCCCC1` (centres undefined), for which the activation is inactive: -1.96%.

For the compound `CN(C)C(=O)c1c([N+](=O)[O-])cc([N+](=O)[O-])cc1[N+](=O)[O-]`, the activation is inactive: 10%.

With `CCCCN1CCC(C#N)(Nc2ccccc2)CC1`, the activation is inactive: -2.23%.

Regarding `COc1ccccc1OP(C)(=O)Nc1ccccc1Br` (centres undefined), the activation is inactive: -0.4%.

Consider `CC(C)(C)c1ccc(OP(C)(=O)O)cc1`, for which the activation is inactive: -0.15%.

`CP(=O)(Nc1ccc(Cl)cc1)Oc1ccc(F)cc1` (centres undefined): the activation is inactive: -1.28%.

As to `COc1ccc(OP(C)(=O)Nc2ccccn2)cc1` (centres undefined), the activation was inactive: -0.53%.

Consider `CN(C)CCOC(=O)C(O)(c1ccccc1)C1CCCC1` (centres undefined), for which the activation was inactive: -2.61%.

Regarding `COc1ccccc1OP(C)(=O)Nc1ccc(Br)cc1` (centres undefined), the activation was inactive: -2.58%.

Turning to `COc1ccccc1OP(C)(=O)Nc1ccc(C)cc1C` (centres undefined), the activation is inactive: -2.77%.

As for `CP(=O)(Nc1ccccn1)Oc1ccccc1` (centres undefined), the activation was inactive: -0.8%.

Turning to `CCc1ccc(OP(C)(=O)O)cc1`, the activation was inactive: -0.69%.

As to `Cc1c(NP(C)(=O)Oc2ccc(C(C)C)cc2)c(=O)n(-c2ccccc2)n1C` (centres undefined), the activation was inactive: -1.65%.

In the case of `O=[N+]([O-])c1cc([N+](=O)[O-])c(Nc2ccccn2)c([N+](=O)[O-])c1`, the activation is inactive: 2.55%.

For `COc1ccccc1OP(C)(=O)Nc1ccc(C)c(C)c1` (centres undefined), the activation is inactive: -1.51%.

Take `COc1ccc(OP(C)(=O)Nc2ccccc2Br)cc1` (centres undefined): the activation was inactive: -1.07%.

For `Cc1cc(C)cc(OP(C)(=O)Nc2cccc(C(F)(F)F)c2)c1` (centres undefined), the activation is inactive: -0.43%.

Take `O=C1C(O)=C([N+](=O)[O-])C(=O)C(O)=C1[N+](=O)[O-]`: the activation was inactive: -3.05%.

Consider `CP(=O)(Nc1ccc(Cl)cc1Cl)Oc1ccccc1` (centres undefined), for which the activation was inactive: -0.57%.

On to `CCCCCCCCCCCCCCCC1C[N+](C)(C)CCOP(C)(=O)O1` (centres undefined), for which the activation is inactive: -2.42%.

`CP(=O)(OCCOc1ccccc1)OCCOc1ccccc1`: the activation was inactive: -4.72%.

As for `CCOC(=O)c1ccc(NP(C)(=O)Oc2ccc(F)cc2)cc1` (centres undefined), the activation is inactive: -0.04%.

Regarding `COc1ccc(OP(C)(=O)Nc2ccc(SC(F)(F)F)cc2)cc1` (centres undefined), the activation was inactive: 3.43%.

Consider `CP(=O)(Nc1ccccc1)Oc1ccc(F)cc1` (centres undefined), for which the activation is inactive: -0.57%.

Regarding `O=[N+]([O-])c1cc([N+](=O)[O-])c(OC2CCCCC2O)c([N+](=O)[O-])c1` (centres undefined), the activation is inactive: -0.76%.

With `CCCCCOc1ccc(NP(C)(=O)Oc2ccc(Cl)cc2Cl)cc1` (centres undefined), the activation is inactive: 2.66%.

With `Cc1c([N+](=O)[O-])cc([N+](=O)[O-])c(Br)c1[N+](=O)[O-]`, the activation is inactive: -2.42%.

As to `CCN(CC)CCCOC(=O)C(O)(c1ccccc1)C1CCCCC1` (centres undefined), the activation was inactive: -1.37%.

`CP(=O)(Nc1ccccc1F)Oc1ccccc1` (centres undefined): the activation was inactive: 0.76%.

On to `CC(C)c1ccc(OP(C)(=O)Nc2ccc(SC(F)(F)F)cc2)cc1` (centres undefined), for which the activation is inactive: 4.81%.

Turning to `COc1ccc2c(c1O)-c1c(O)c(OC)cc3c1[C@H](C2)[N+](C)(C)CC3.O=[N+]([O-])c1cc([N+](=O)[O-])c([O-])c([N+](=O)[O-])c1[O-]`, the activation is inactive: -0.7%.

Take `O=C(OC1CN2CCC1CC2)c1ccc([N+](=O)[O-])cc1` (centres undefined): the activation is inactive: 3.98%.

`O=C(OCCN1CCN(CCOCc2ccccc2)CC1)C(O)(c1ccccc1)c1ccccc1`: the activation was inactive: -0.95%.

Regarding `CCOP(C)(=S)SCC(=O)NC(C)(CC)C(=O)O` (centres undefined), the activation is inactive: -0.82%.

As for `CP(=O)(Nc1ccc(SC(F)(F)F)cc1)Oc1ccc(F)cc1` (centres undefined), the activation is inactive: 5.35%.

With `Cc1ccccc1NP(C)(=O)Nc1ccccc1C`, the activation was inactive: -0.82%.

Consider `CP(=O)(Nc1ccc2c(c1)OCCO2)Oc1ccccc1` (centres undefined), for which the activation is inactive: -0.54%.

As to `CN(C)CCOC(=O)C(O)(c1ccccc1)C1CCCCC1` (centres undefined), the activation is inactive: -1.02%.

Consider `COc1ccc(NP(C)(=O)Oc2ccccc2OC)cc1` (centres undefined), for which the activation is inactive: -0.54%.

For `COc1ccc(OP(C)(=O)Nc2cccc(Br)c2)cc1` (centres undefined), the activation was inactive: -3.93%.

As for `Cc1c(C(c2ccc3c(c2)OCO3)c2c(C)n(C)n(-c3ccccc3)c2=O)c(=O)n(-c2ccccc2)n1C.O=[N+]([O-])c1cc([N+](=O)[O-])c(O)c([N+](=O)[O-])c1`, the activation is inactive: -1.35%.

Turning to `O=[N+]([O-])c1ccc(OP2(=O)COCCO2)cc1` (centres undefined), the activation was inactive: -1.53%.

In the case of `Cc1cc(-c2cccc3ccccc23)c(C)cn1.O=[N+]([O-])c1cc([N+](=O)[O-])c(O)c([N+](=O)[O-])c1`, the activation was inactive: -3.99%.

Take `O=[N+]([O-])c1cc([N+](=O)[O-])c(NCC2CCS(=O)(=O)C2)c([N+](=O)[O-])c1` (centres undefined): the activation was inactive: 4.15%.
